From ChEMBL document CHEMBL1140014, “Synthesis and evaluation of pyrazolo[3,4-b]pyridine CDK1 inhibitors as anti-tumor agents” (Bioorg Med Chem Lett, 2007)

How the values were obtained:
Experiment in all cases: cells
Conditions in all cases: Homo sapiens
A-375 = system: A-375
HCT-116 = system: HCT-116
HeLa = system: HeLa

| SMILES | IC50 (HCT-116) | also measured |
| --- | --- | --- |
| OCc1cccc2[nH]c(-c3n[nH]c4ncc(-c5cncc6ccccc56)cc34)nc12 | – | IC50 (A-375): 1470 nM |
| COCc1cccc2[nH]c(-c3n[nH]c4ncc(-c5cnc6ccccc6c5)cc34)nc12 | 3.2 nM | – |
| COC(=O)c1cccc2[nH]c(-c3n[nH]c4ncc(-c5cncc6ccccc56)cc34)nc12 | 8010 nM | – |
| CNCc1cncc(-c2cnc3[nH]nc(-c4nc5cc(OC(F)(F)F)ccc5[nH]4)c3c2)c1 | – | IC50 (HeLa): 93 nM |
